Entries after “also recorded” stand apart in the source; their conditions may differ. Where two headings read alike, the source gives them in different places.
Settings: rats

With `Cc1ccc(NC(=O)c2ccc(CN3CCN(C)CC3)cc2)cc1Nc1nccc(-c2cccnc2)n1` [Imatinib, reference compound] the effects on kinetics (imatinib 30 mg/kg IG + h-GS 100 mg/kg/day 21 days, vs l-GS group) was “no significant effects”, the effects on kinetics (imatinib 30 mg/kg IG + h-GS and h-GT 100 mg/kg/day each 21 days, vs h-GS or h-GT groups separately) was “no significant effects” and the “differences in pharmacokinetic parameters” value (imatinib 30 mg/kg IG + l-GS 50 mg/kg/day 21 days, vs imatinib only) was “no significant differences”. For the same compound, the effect on pharmacokinetics (imatinib 30 mg/kg IG + l-GS and l-GT 50 mg/kg/day each 21 days, vs imatinib only) was “no significant effects; also recorded: not significantly affected” and the “differences in pharmacokinetic parameters” value (imatinib 30 mg/kg IG, l-GT vs h-GT group) was “no significant differences”.
